Source: patent EP3967307B1, “PIM KINASE INHIBITORS TO AUGMENT THE EFFICACY OF ANTI-CD20 ANTIBODY-BASED THERAPIES FOR USE IN THE TREATMENT OF HEMATOLOGIC MALIGNANCIES” (dated 2026)

Key:
CD20 [1] = experiment: Surface CD20 expression by flow cytometry (DHL4); conditions: DHL4 (DLBCL) cells; 3µM SGI-1776 for 48h or 5µM PIM447 for 72h; vs DMSO
CD20 [2] = experiment: Surface CD20 expression by flow cytometry (RAJI); conditions: RAJI (BL) cells; 2µM SGI-1776 for 48h or 5µM PIM447 for 72h; vs DMSO
DHL4 cells [3] = experiment: Complement-dependent cytotoxicity assay with rituximab (DHL4)
DHL4 cells [4] = experiment: Antibody-dependent cellular phagocytosis (ADCP) assay; conditions: DHL4 cells treated 72 hours with SGI-1776 (3µM) or PIM447 (7µM); human blood-derived macrophages, rituximab 1µg/ml, 2h at 37°C; vs DMSO
MYC [5] = experiment: MYC expression by immunoblotting after PIM inhibitor treatment (RAJI); conditions: RAJI (BL) cells, 24 hours, vs DMSO, GAPDH loading control
MYC [6] = experiment: MYC expression by immunoblotting after PIM inhibitor treatment (DHL4); conditions: DHL4 (DLBCL) cells, 24 hours, vs DMSO, GAPDH loading control
RAJI cells = experiment: Complement-dependent cytotoxicity assay with rituximab (RAJI)

## CN1CCC(CNc2ccc3ncc(-c4cccc(OC(F)(F)F)c4)n3n2)CC1
CD20 [1]
  CD20 surface abundance: elevate surface CD20 expression
CD20 [2]
  CD20 surface abundance: elevate surface CD20 expression
DHL4 cells [3]; DHL4 cells pretreated with 3µM SGI-1776 48h or 5µM PIM447 72h, then rituximab 0.1-100 µg/ml 1 hour, 10% human serum, vs DMSO-treated cells exposed to rituximab
  % of PI-positive (apoptotic) cells: marked increase in apoptosis
DHL4 cells [3]; DHL4 cells, combination with rituximab, Chou-Talalay, CompuSyn
  combinatory indexes (CI): synergistic effects
DHL4 cells [4]
  phagocytic index (ingested CFSE-labelled DLBCL cells per 100 macrophages): potentiated rituximab-dependent phagocytosis
MYC [5]
  MYC expression: downregulates MYC protein
MYC [6]
  MYC expression: downregulates MYC protein
RAJI cells; RAJI cells pretreated with 2µM SGI-1776 48h or 5µM PIM447 72h, then rituximab 0.1-100 µg/ml 1 hour, 10% human serum, vs DMSO-treated cells exposed to rituximab
  % of PI-positive (apoptotic) cells: marked increase in apoptosis
RAJI cells; RAJI cells, combination with rituximab, Chou-Talalay, CompuSyn
  combinatory indexes (CI): synergistic effects
